The experiment addresses AMPKα1β1γ1 (Homo sapiens, UniProt Q13131+Q9Y478). In words: In vitro assay for AMPK (α1β1γ1) enzyme agonist activity (TR-FRET). The method, then:
Test example 1: In vitro assay for AMPK (α1β1γ1) enzyme agonist activity
Test compounds were dissolved in DMSO to prepare 10 mM stock solution, which was then diluted to the predetermined test concentrations using kinase buffer (50 mM HEPES, 1 mM EDTA, 10 mM MgCl2, 0.01% Brij-35, pH = 7.5). Into a 384-well plate were added 5 µL of AMPKα1β1γ1 (CARNA, 02-113), 2.5 µL of the diluted test compound solution, and 2.5 µL of a mixture of […] and ATP, resulting in the following final concentrations: AMPKα1β1γ1 at 1.6 mg/L, […] at 5 nM, and ATP at 0.1 mM. The components were mixed evenly, and reacted at room temperature for 1 h. […] The values of samples in each well were read using a microplate reader in TR-FRET mode (excitation wavelength: 320 nm; emission wavelengths: 665 nm and 615 nm). By comparing the values with those of the blank control group (1% DMSO) and the positive control group (1 µM A769662), the relative activity of AMPKα1β1γ1 at each test compound concentration (4.57 nM, 13.72 nM, 41.15 nM, 123.46 nM, 370.37 nM, 1111.11 nM, 3333.33 nM, and 10000 nM) was calculated, with the activity of 1 µM A769662 set as 100%. The data were analysed in GraphPad Prism 9 using a Dose-response-Stimulation four-parameter regression model to obtain the Top and EC50 values for the test compounds.

Sequences of proteins named here, by UniProt entry; tags and fusion partners are left off.
UniProt Q13131, whole entry: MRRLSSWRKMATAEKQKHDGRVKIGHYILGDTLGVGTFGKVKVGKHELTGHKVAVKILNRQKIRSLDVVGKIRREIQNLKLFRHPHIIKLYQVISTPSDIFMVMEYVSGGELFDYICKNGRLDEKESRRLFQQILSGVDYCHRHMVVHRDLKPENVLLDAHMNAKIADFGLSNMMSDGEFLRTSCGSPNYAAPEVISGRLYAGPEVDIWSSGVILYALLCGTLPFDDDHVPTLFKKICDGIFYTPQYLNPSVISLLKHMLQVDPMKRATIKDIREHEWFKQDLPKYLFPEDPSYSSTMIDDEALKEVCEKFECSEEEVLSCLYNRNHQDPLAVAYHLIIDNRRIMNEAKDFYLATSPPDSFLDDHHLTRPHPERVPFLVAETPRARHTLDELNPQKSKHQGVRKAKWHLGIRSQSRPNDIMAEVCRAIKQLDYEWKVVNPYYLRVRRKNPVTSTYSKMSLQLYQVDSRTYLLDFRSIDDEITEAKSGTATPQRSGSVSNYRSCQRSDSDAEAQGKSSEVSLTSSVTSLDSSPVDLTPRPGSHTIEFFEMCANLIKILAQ
UniProt Q9Y478, whole entry: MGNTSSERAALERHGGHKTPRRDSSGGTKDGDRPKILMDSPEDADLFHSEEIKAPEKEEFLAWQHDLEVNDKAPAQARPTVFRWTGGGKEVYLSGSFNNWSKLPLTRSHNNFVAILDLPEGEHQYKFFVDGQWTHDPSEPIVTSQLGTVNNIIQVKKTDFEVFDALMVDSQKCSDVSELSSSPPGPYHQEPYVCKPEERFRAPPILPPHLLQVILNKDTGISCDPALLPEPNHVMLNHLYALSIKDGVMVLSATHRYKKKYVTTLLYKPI
UniProt P54619, whole entry partner: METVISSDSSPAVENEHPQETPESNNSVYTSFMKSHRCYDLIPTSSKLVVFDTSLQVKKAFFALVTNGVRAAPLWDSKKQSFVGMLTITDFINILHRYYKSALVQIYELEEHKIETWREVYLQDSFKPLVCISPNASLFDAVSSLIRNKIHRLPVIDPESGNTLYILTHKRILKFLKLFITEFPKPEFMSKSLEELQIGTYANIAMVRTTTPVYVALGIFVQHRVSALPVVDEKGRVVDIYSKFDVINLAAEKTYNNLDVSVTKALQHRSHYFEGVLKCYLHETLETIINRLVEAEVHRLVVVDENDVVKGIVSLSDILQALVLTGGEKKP

Consider `O=C(Nc1cc(Cl)c(-c2ccc(C3CCCCO3)cc2)s1)O[C@@H]1CO[C@H]2[C@@H]1OC[C@H]2O` (some centres unmarked), for which the concentration giving a half-maximal response (EC50) (commonly the concentration at which the effect is half-maximal) (AMPKα1β1γ1 1.6 mg/L, ATP 0.1 mM, 1 h room temperature, 4.57 nM-10000 nM) was in the range of 0.2 to 0.5 µM. In addition, where the note is “activity of 1 µM A769662 set as 100%”, the “Top value (%)” value was “C (C indicates the Top value of the test compound's AMPK (α1β1γ1) enzyme agonist activity ≥ 150% and < 200%)”.

The values above are taken from patent publication EP4772502A1, “ARYL OR HETEROARYL SUBSTITUTED CARBAMATE COMPOUND AND DERIVATIVE AND USE THEREOF” (Shenzhen Zhongge Biological Technology Co., Ltd., priority 2023, dated 2025).
